Experimental data published in patent US10201546B2, “Quinolinyl modulators of RORγt” (Janssen Pharmaceutica NV, priority 2013, dated 2019).
Where two headings read alike, the source gives them in different places. Blank lines part the entries; values can stand above or below the compound they belong to.

By UniProt entry, the sequences of proteins in these tests, tags left out. Chains listed by the source or under a name are the forms on record and can include a tag or linker. Residues count along the entry.
UniProt P51449, 258-518: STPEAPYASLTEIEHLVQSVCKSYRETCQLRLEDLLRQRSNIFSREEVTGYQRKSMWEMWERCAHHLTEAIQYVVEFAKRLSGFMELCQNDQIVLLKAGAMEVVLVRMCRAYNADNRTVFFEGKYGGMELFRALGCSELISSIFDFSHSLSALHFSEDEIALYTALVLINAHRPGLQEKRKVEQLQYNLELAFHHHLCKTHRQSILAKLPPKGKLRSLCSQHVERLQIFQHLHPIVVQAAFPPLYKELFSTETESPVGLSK
UniProt P51449, other isoform, or with tags, fused parts or gaps: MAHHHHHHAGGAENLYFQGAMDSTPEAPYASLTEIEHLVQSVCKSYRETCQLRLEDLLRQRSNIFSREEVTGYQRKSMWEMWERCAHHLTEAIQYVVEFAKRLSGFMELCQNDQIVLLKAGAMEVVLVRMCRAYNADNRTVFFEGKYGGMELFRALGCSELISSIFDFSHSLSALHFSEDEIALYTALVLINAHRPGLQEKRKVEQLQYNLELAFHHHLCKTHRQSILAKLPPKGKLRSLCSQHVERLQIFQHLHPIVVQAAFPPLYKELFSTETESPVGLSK

Experiments:
[1] = test system: IL-17 production by CD4+ T cells under conditions which favor Th17 differentiation; assay: Human Th17 assay (IL-17 production by CD4 T cells); assay type: cell-based
[2] = molecular target: human RORγt LBD fused to the DNA binding domain of the GAL4 protein (Homo sapiens (Human), UniProt P51449); assay: RORγt (LBD) reporter assay in HEK293T cells; assay type: cell-based
[3] = molecular target: human RORγt ligand binding domain (RORγt LBD) (Homo sapiens (Human), UniProt P51449); assay: RORγt ThermoFluor assay (thermal shift, binding affinity Kd)
[4] = read-out: ThermoFluor Assay, Kd
[5] = HEK293T cells, read-out: RORγt (LBD) Reporter Assay, IC50

Compound: COc1nc2ccc(C(O)(c3cnc(C)n3C)c3cnc(C)n3C)cc2c(Cl)c1OCC1CC1(F)F (single isomer, unassigned) [Example 56b, {4-Chloro-3-[(2,2-difluorocyclopropyl)methoxy]-2-methoxyquinolin-6-yl}[bis(1,2-dimethyl-1H-imidazol-5-yl)]methanol]
IC50 [1]: 12 nM

Compound: COc1nc2ccc(C(O)(c3ccc(C)nc3C)c3cnnn3C)cc2c(Cl)c1OC(C)C (single isomer, unassigned) [Example 81c, [4-Chloro-2-methoxy-3-(1-methylethoxy)quinolin-6-yl](2,6-dimethylpyridin-3-yl)(1-methyl-1H-1,2,3-triazol-5-yl)methanol]
IC50 [1]: 10 nM

Compound: COc1nc2ccc(C(O)(c3sc(C)nc3C)c3cnnn3C)cc2c(Cl)c1OC(C)C (single isomer, unassigned) [Example 85c, [4-Chloro-2-methoxy-3-(1-methylethoxy)quinolin-6-yl](2,4-dimethyl-1,3-thiazol-5-yl)(1-methyl-1H-1,2,3-triazol-5-yl)methanol]
IC50 [1]: 1.6 nM

Compound: COc1nc2ccc(C(O)(c3ccc(C(F)(F)F)nc3)c3cncn3C)cc2c(Cl)c1CN1CCC(C(F)(F)F)CC1 (single isomer, unassigned) [Example 112c, (4-Chloro-2-methoxy-3-((4-(trifluoromethyl)piperidin-1-yl)methyl)quinolin-6-yl)(1-methyl-1H-imidazol-5-yl)(6-(trifluoromethyl)pyridin-3-yl)methanol]
IC50 [2]: 61 nM
IC50 ([1]; CD4+ T): 17 nM

Compound: COc1nc2ccc(C(O)(c3ccccc3)C3CCN(C(C)=O)CC3)cc2c(Cl)c1CN1CCC(C(F)(F)F)CC1 (single isomer, unassigned) [Example 116b, 1-(4-((4-Chloro-2-methoxy-3-((4-(trifluoromethyl)piperidin-1-yl)methyl)quinolin-6-yl)(hydroxy)(phenyl)methyl)piperidin-1-yl)ethanone]
IC50 [1]: 30 nM

Compound: COc1nc2ccc(C(O)(c3ccc(C)nc3C)c3cnnn3C)cc2c(Cl)c1CC(F)(F)F (single isomer, unassigned) [Example 143c, [4-Chloro-2-methoxy-3-(2,2,2-trifluoroethyl)quinolin-6-yl](2,6-dimethylpyridin-3-yl)(1-methyl-1H-1,2,3-triazol-5-yl)methanol]
Kd ([3]; ThermoFluor ® Assay, Kd): 2.9 nM
IC50 [2]: 45 nM

Compound: COc1nc2ccc(C(O)(c3cnnn3C)C3CN(C(C)=O)C3)cc2c(Cl)c1CC(F)(F)F (single isomer, unassigned) [Example 223c, 1-[3-[[4-Chloro-2-methoxy-3-(2,2,2-trifluoroethyl)-6-quinolyl]-hydroxy-(3-methyltriazol-4-yl)methyl]azetidin-1-yl]ethanone]
IC50 [1]: 190 nM

Compound: CCc1nc2ccc(C(O)(c3ccnc(C(F)(F)F)c3)c3cncn3C)cc2c(Cl)c1CC(F)(F)F (single isomer, unassigned) [Example 227b, [4-Chloro-2-ethyl-3-(2,2,2-trifluoroethyl)-6-quinolyl]-(3-methylimidazol-4-yl)-[2-(trifluoromethyl)-4-pyridyl]methanol]
IC50 [1]: 52 nM

Kd [3, 4]: 250 nM
IC50 [2, 5]: > 6000 nM
Compound: COc1nc2ccc(C(O)(c3cncn3C)C3CCN(C(C)=O)CC3)cc2c(Cl)c1CC1CCOCC1 (stereo not drawn) [Example 5a, 1-(4-((4-Chloro-2-methoxy-3-((tetrahydro-2H-pyran-4-yl)methyl)quinolin-6-yl)(hydroxy)(1-methyl-1H-imidazol-5-yl)methyl)piperidin-1-yl)ethanone]

Compound: COc1nc2ccc(C(O)(c3ccc(C)nc3C)c3cnnn3C)cc2c(Cl)c1C (stereo not drawn) [Example 12a, (4-Chloro-2-methoxy-3-methylquinolin-6-yl)(2,6-dimethylpyridin-3-yl)(1-methyl-1H-1,2,3-triazol-5-yl)methanol]
Kd [3, 4]: 290 nM
IC50 [2, 5]: 1100 nM

Compound: COc1nc2ccc(C(O)(c3ccc(C)nc3C)c3cnnn3C)cc2c(Cl)c1CC1CC1 (stereo not drawn) [Example 14a, (4-Chloro-3-(cyclopropylmethyl)-2-methoxyquinolin-6-yl)(2,6-dimethylpyridin-3-yl)(1-methyl-1H-1,2,3-triazol-5-yl)methanol]
Kd [3, 4]: 2.5 nM
IC50 [2, 5]: 23 nM

Compound: COc1nc2ccc(C(O)(c3ccc(C)nc3C)c3cnnn3C)cc2c(Cl)c1OC1CCOCC1 (stereo not drawn) [Example 69a, [4-Chloro-2-methoxy-3-(tetrahydro-2H-pyran-4-yloxy)quinolin-6-yl](2,6-dimethylpyridin-3-yl)(1-methyl-1H-1,2,3-triazol-5-yl)methanol]
Kd [3, 4]: 58 nM
IC50 [2, 5]: ~6000 nM

Compound: COc1nc2ccc(C(O)(c3ccc(C)nc3C)c3cnnn3C)cc2c(Cl)c1OCC1CC1(F)F (stereo not drawn) [Example 72a, {4-Chloro-3-[(2,2-difluorocyclopropyl)methoxy]-2-methoxyquinolin-6-yl}(2,6-dimethylpyridin-3-yl)(1-methyl-1H-1,2,3-triazol-5-yl)methanol]
Kd [3, 4]: 41 nM
IC50 [2, 5]: 57 nM

Compound: COc1nc2ccc(C(O)(c3cnc(C)n3C)c3cnc(C)n3C)cc2c(Cl)c1CN1CC(C(F)(F)F)C1 [Example 118, (4-Chloro-2-methoxy-3-((3-(trifluoromethyl)azetidin-1-yl)methyl)quinolin-6-yl)bis(1,2-dimethyl-1H-imidazol-5-yl)methanol]
IC50 [1]: 220 nM

Compound: COc1nc2ccc(C(O)(c3ccc(C)nc3C)c3cnnn3C)cc2c(Cl)c1C1CCCC1 (stereo not drawn) [Example 136a, (4-Chloro-3-cyclopentyl-2-methoxyquinolin-6-yl)(2,6-dimethylpyridin-3-yl)(1-methyl-1H-1,2,3-triazol-5-yl)methanol]
Kd ([3]; read-out: ThermoFluor ® Assay, Kd): 0.95 nM
IC50 [2, 5]: 60 nM

Compound: COc1nc2ccc(C(O)(c3cnc(C)n3C)c3cnc(C)n3C)cc2c(Cl)c1CNC1CCCC(C(F)(F)F)C1 (stereo not drawn) [Example 201, (4-Chloro-2-methoxy-3-(((3-(trifluoromethyl)cyclohexyl)amino)methyl)quinolin-6-yl)bis(1,2-dimethyl-1H-imidazol-5-yl)methanol]
IC50 [1]: 270 nM
